The assay has as its target isolated polymerase domain (I1780-V2590) of DNA polymerase theta (Polθ) (Homo sapiens (Human), UniProt O75417). Description: biochemical.

By UniProt entry, the sequences of proteins in these tests, tags left out. Residues count along the entry.
UniProt O75417, 1780-2590: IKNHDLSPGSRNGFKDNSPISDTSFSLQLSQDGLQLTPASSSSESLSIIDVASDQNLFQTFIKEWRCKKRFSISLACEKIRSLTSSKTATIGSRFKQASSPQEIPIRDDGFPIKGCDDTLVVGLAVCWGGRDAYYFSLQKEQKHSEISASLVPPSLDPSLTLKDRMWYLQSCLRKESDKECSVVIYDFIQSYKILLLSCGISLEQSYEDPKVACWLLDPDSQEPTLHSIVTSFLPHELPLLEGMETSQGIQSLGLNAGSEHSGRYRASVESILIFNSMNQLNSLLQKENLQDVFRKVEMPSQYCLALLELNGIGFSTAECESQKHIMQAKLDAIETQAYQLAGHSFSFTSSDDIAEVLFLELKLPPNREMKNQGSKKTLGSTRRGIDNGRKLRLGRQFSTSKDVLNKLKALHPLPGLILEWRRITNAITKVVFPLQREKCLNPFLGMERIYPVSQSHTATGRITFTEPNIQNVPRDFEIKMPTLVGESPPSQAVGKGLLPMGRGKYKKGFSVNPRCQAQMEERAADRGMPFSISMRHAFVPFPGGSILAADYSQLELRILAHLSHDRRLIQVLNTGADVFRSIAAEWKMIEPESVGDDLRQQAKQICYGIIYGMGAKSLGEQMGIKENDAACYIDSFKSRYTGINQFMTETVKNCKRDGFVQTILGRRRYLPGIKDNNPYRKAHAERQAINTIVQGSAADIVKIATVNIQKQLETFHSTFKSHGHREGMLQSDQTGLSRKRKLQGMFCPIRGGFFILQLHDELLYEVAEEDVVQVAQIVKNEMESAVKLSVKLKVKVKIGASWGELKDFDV

By IC50 is commonly meant the concentration that gives 50% inhibition. A lower IC50 goes with greater potency. Compound `CC1(Oc2ncnc3c2nc(-c2ccc(CC(N)=O)cc2Cl)n3Cc2cccc(F)c2)CC1` [Example T42, 2-(3-chloro-4-(9-(3-fluorobenzyl)-6-(1-methylcyclopropoxy)-9H-purin-8-yl)phenyl)acetamide] gave an IC50 of 7.94 nM.

In the case of `CC1(Oc2ncnc3c2nc(-c2ccc(CC(N)=O)cc2Cl)n3Cc2ccc(F)cc2)CC1` [Example T43, 2-(3-chloro-4-(9-(4-fluorobenzyl)-6-(1-methylcyclopropoxy)-9H-purin-8-yl)phenyl)acetamide], 7.94 nM corresponded to half-maximal inhibition (IC50). `CC1(Oc2ncnc3c2nc(-c2ccc(OCCO)cc2Cl)n3Cc2cc(C(F)(F)F)ccn2)CC1` [Example T44, 2-(3-chloro-4-(6-(1-methylcyclopropoxy)-9-((4-(trifluoromethyl)pyridin-2-yl)methyl)-9H-purin-8-yl)phenoxy)ethan-1-ol] gave a 50% inhibitory concentration (IC50) of 5.01 nM. For `CC1(Oc2ncnc3c2nc(-c2ccc(CC(N)=O)cc2Cl)n3Cc2cccc(Cl)c2)CC1` [Example T45, 2-(3-chloro-4-(9-(3-chlorobenzyl)-6-(1-methylcyclopropoxy)-9H-purin-8-yl)phenyl)acetamide], the IC50 is 5.01 nM. `CC1(Oc2ncnc3c2nc(-c2ccc(CC(N)=O)cc2Cl)n3CCc2cccc(Br)n2)CC1` [Example T46, 2-(4-(9-(2-(6-bromopyridin-2-yl)ethyl)-6-(1-methylcyclopropoxy)-9H-purin-8-yl)-3-chlorophenyl)acetamide] gave a half-inhibitory concentration (IC50) of 1580 nM.

On to `Cc1ccnc(Cn2c(-c3ccc(OCC(F)F)cc3Cl)nc3c(OC4(C)CC4)ncnc32)c1` [Example T47, 8-(2-chloro-4-(2,2-difluoroethoxy)phenyl)-6-(1-methylcyclopropoxy)-9-((4-methylpyridin-2-yl)methyl)-9H-purine], for which the IC50 was 5.01 nM. The value for `CC1(Oc2ncnc3c2nc(-c2ccc(CC(N)=O)cc2Cl)n3Cc2ccccc2)CC1` [Example T48, 2-(4-(9-benzyl-6-(1-methylcyclopropoxy)-9H-purin-8-yl)-3-chlorophenyl)acetamide] was 6.31 nM; that for `Cc1ccnc(Cn2c(-c3ccc(CC(=O)O)cc3Cl)nc3c(OC4(C)CC4)ncnc32)c1` [Example T49, 2-(3-chloro-4-(6-(1-methylcyclopropoxy)-9-((4-methylpyridin-2-yl)methyl)-9H-purin-8-yl)phenyl)acetic acid] was 7.94 nM; that for `CC1(Oc2ncnc3c2nc(-c2ccc(OC4CNC4)cc2Cl)n3Cc2cc(Cl)ccn2)CC1` [Example T50, 8-(4-(azetidin-3-yloxy)-2-chlorophenyl)-9-((4-chloropyridin-2-yl)methyl)-6-(1-methylcyclopropoxy)-9H-purine] was 2.51 nM. The figure for `CNC(=O)COc1ccc(-c2nc3c(OC4(C)CC4)ncnc3n2Cc2cc(Cl)ccn2)c(Cl)c1` [Example T51, 2-(3-chloro-4-(9-((4-chloropyridin-2-yl)methyl)-6-(1-methylcyclopropoxy)-9H-purin-8-yl)phenoxy)-N-methylacetamide] is 5.01 nM.

The compound `CNC(=O)c1ccc(-c2nc3c(OC4(C)CC4)ncnc3n2Cc2cc(C)ccn2)c(Cl)c1` [Example T52, 3-chloro-N-methyl-4-(6-(1-methylcyclopropoxy)-9-((4-methylpyridin-2-yl)methyl)-9H-purin-8-yl)benzamide] showed an IC50 of 2.51 nM. As for `CC(=O)Nc1ccc(-c2nc3c(OC4(C)CC4)ncnc3n2Cc2cc(C)ccn2)c(Cl)c1` [Example T53, N-(3-chloro-4-(6-(1-methylcyclopropoxy)-9-((4-methylpyridin-2-yl)methyl)-9H-purin-8-yl)phenyl)acetamide], the IC50 is 6.31 nM.

Compound `CNC(=O)c1ccc(Cl)c(-c2nc3c(OC4(C)CC4)ncnc3n2Cc2cc(C)ccn2)c1` [Example T54, 4-chloro-N-methyl-3-(6-(1-methylcyclopropoxy)-9-((4-methylpyridin-2-yl)methyl)-9H-purin-8-yl)benzamide] had an IC50 of 398 nM. The compound `CNC(=O)c1cccc(-c2nc3c(OC4(C)CC4)ncnc3n2Cc2cc(C)ccn2)c1Cl` [Example T55, 2-chloro-N-methyl-3-(6-(1-methylcyclopropoxy)-9-((4-methylpyridin-2-yl)methyl)-9H-purin-8-yl)benzamide] gave an IC50 of 20 nM.

`Cc1ccnc(Cn2c(-c3cccc(CC(N)=O)c3Cl)nc3c(OC4(C)CC4)ncnc32)c1` [Example T56, 2-(2-chloro-3-(6-(1-methylcyclopropoxy)-9-((4-methylpyridin-2-yl)methyl)-9H-purin-8-yl)phenyl)acetamide] gave an IC50 of 20 nM. The compound `Cc1ccnc(Cn2c(-c3cc(CC(N)=O)ccc3Cl)nc3c(OC4(C)CC4)ncnc32)c1` [Example T57, 2-(4-chloro-3-(6-(1-methylcyclopropoxy)-9-((4-methylpyridin-2-yl)methyl)-9H-purin-8-yl)phenyl)acetamide] had a half-maximal inhibitory concentration (IC50) of 126 nM. Turning to `Cc1cc(Cn2c(-c3ccc(CC(N)=O)cc3Cl)nc3c(OC4(C)CC4)ncnc32)ccn1` [Example T58, 2-(3-chloro-4-(6-(1-methylcyclopropoxy)-9-((2-methylpyridin-4-yl)methyl)-9H-purin-8-yl)phenyl)acetamide], half-maximal inhibition (IC50) was put at 158 nM. `Cc1cccc(Cn2c(-c3ccc(CC(N)=O)cc3Cl)nc3c(OC4(C)CC4)ncnc32)n1` [Example T59, 2-(3-chloro-4-(6-(1-methylcyclopropoxy)-9-((6-methylpyridin-2-yl)methyl)-9H-purin-8-yl)phenyl)acetamide] gave an IC50 of 25.1 nM. Compared with the last compound, the IC50 is about 6.3-fold lower.

`Cc1ncccc1Cn1c(-c2ccc(CC(N)=O)cc2Cl)nc2c(OC3(C)CC3)ncnc21` [Example T60, 2-(3-chloro-4-(6-(1-methylcyclopropoxy)-9-((2-methylpyridin-3-yl)methyl)-9H-purin-8-yl)phenyl)acetamide]: the IC50 was 398 nM. This IC50 is about 16-fold higher than that of the compound before.

`Cc1ccnc(Cn2c(-c3ccc(OCC(N)=O)cc3Cl)nc3c(OC4(C)CC4)ncnc32)c1` [Example T61, 2-(3-chloro-4-(6-(1-methylcyclopropoxy)-9-((4-methylpyridin-2-yl)methyl)-9H-purin-8-yl)phenoxy)acetamide]: the concentration for half-maximal inhibition (IC50) is 6.31 nM. Compared with the last compound, the IC50 is about 63-fold lower. In turn, `COC(=O)Nc1ccc(-c2nc3c(OC4(C)CC4)ncnc3n2Cc2cc(C)ccn2)c(Cl)c1` [Example T62, methyl (3-chloro-4-(6-(1-methylcyclopropoxy)-9-((4-methylpyridin-2-yl)methyl)-9H-purin-8-yl)phenyl)carbamate] had a 50% inhibitory concentration (IC50) of 3.98 nM. Regarding `COc1ccnc(Cn2c(-c3ccc(CC(N)=O)cc3Cl)nc3c(OC4(C)CC4)ncnc32)c1` [Example T63, 2-(3-chloro-4-(9-((4-methoxypyridin-2-yl)methyl)-6-(1-methylcyclopropoxy)-9H-purin-8-yl)phenyl)acetamide], the IC50 is 25.1 nM. For `CC1(Oc2ncnc3c2nc(-c2ccc(OCCCO)cc2Cl)n3Cc2cc(Cl)ccn2)CC1` [Example T64, 3-(3-chloro-4-(9-((4-chloropyridin-2-yl)methyl)-6-(1-methylcyclopropoxy)-9H-purin-8-yl)phenoxy)propan-1-ol], 6.31 nM corresponded to half-maximal inhibition (IC50).

Take `Cc1ccnc(Cn2c(-c3ccc(CCO)cc3Cl)nc3c(OC4(C)CC4)ncnc32)c1` [Example T65, 2-(3-chloro-4-(6-(1-methylcyclopropoxy)-9-((4-methylpyridin-2-yl)methyl)-9H-purin-8-yl)phenyl)ethan-1-ol]: the half-maximal inhibitory concentration (IC50) was 7.94 nM. The IC50 values of the last two compounds are within 1.5-fold of each other.

(Values after US20250195530A1, “POLQ INHIBITORS” (ASTRAZENECA AB, priority 2022, published 2025).)
